Data: PMC10073475, “Effect of mTOR inhibitors on sodium taurocholate cotransporting polypeptide (NTCP) function in vitro” (Frontiers in Pharmacology, 2023)

Target: T1, sodium taurocholate cotransporting polypeptide (NTCP) (Homo sapiens, UniProt Q14973)
T1 sequence (Q14973 1-349): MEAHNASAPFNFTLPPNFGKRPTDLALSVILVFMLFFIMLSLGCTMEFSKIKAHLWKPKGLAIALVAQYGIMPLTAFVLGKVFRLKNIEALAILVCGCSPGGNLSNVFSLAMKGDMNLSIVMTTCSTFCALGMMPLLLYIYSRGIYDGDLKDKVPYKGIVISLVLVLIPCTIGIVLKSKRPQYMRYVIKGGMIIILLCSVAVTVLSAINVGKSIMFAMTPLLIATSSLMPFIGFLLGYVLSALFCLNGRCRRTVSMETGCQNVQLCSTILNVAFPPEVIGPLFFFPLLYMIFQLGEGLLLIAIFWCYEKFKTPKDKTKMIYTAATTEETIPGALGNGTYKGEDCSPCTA
Test: cell-based
Design: gene SLC10A1
Details: Huh-7, read-out: % inhibition at 75 μM %

- inhibition at 75 µM: 96%
Structure (SMILES): Cc1c(C)c2c(c(C)c1O)CCC(C)(COc1ccc(CC3SC(=O)NC3=O)cc1)O2 (stereo not shown) [TGZ, Troglitazone]
